From patent publication US9790262B2, “Compositions comprising glucagon analogs and methods of making and using the same” (LONGEVITY BIOTECH, INC., priority 2011, dated 2017)

Sequences of proteins named here, by UniProt entry; tags and fusion partners are left off. Residues count along the entry.
UniProt P43220, 24-463: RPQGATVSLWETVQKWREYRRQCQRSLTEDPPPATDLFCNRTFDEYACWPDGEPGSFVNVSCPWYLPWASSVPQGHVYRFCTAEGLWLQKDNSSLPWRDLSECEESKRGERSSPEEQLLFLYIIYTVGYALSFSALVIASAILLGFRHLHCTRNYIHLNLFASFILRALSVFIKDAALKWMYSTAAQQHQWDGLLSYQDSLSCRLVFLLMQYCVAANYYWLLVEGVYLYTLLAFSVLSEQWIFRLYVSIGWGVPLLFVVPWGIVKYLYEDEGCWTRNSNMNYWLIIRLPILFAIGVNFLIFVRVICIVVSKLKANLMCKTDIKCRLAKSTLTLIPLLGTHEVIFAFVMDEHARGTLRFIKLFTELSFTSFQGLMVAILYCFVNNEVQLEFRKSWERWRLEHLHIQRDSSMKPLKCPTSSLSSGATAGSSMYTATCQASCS

Assays:
GIP receptor (GIPR) = biological target: T1, GIP receptor (GIPR) (Homo sapiens, UniProt P48546); assay: cAMP Hunter agonist assay (DiscoveRx HitHunter cAMP XS+), GIPR cells; type: cell-based; conditions: for Emax: read-out: Max Response; for Curve Bottom / Curve Top / Hill: cAMP, Agonist, GIPR; for Curve Bottom / Curve Top: % Activity scale; for Hill: dose curve fit
T1 sequence (P48546 22-466): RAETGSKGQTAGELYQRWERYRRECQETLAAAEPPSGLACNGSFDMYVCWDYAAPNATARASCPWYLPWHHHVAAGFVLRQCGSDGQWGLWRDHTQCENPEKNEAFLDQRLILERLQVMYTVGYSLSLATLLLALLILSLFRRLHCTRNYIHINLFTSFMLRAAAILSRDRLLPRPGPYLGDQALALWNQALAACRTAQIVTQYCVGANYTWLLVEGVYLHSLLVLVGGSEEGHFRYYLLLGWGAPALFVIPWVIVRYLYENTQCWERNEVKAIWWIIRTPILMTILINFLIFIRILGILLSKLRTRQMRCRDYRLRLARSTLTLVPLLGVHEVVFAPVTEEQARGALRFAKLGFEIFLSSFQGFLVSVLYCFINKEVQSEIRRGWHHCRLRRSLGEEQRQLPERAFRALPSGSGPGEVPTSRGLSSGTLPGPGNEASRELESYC
Description: (§1) Once it was established that the cells were healthy and growing normally, cells were passaged from flasks using cell dissociation reagent buffer and seeded into white walled clear bottom 384-well microplates for compound profiling. For profiling, cells were seeded at a density of 10,000 cells per well in a total volume of 20 μL and were allowed to adhere and recover overnight prior to compound addition. cAMP modulation was determined using the DiscoveRx HitHunter cAMP XS+ assay.
(§2) For profiling compound in agonist mode, the cells were incubated in the presence of compound at 37° C. for 30 minutes. […] After appropriate compound incubation, assay signal was generated through incubation with DiscoverX lysis cocktail according to the manufacturers standard protocol. Dose curves were plotted using GraphPad Prism or Activity Base. Percentage activity is calculated using the following formula: % Activity=100%×(mean RLU of test sample−mean RLU of vehicle control)/(mean RLU of MAX control−mean RLU of vehicle control).

GLP-1 receptor (GLP1R) = GLP-1 receptor (GLP1R) (Homo sapiens, UniProt P43220); assay: cAMP Hunter agonist assay (DiscoveRx HitHunter cAMP XS+), GLP1R cells; type: cell-based; conditions: for Emax: read-out: Max Response; for Curve Bottom / Curve Top / Hill: cAMP, Agonist, GLP1R; for Curve Bottom / Curve Top: % Activity scale; for Hill: dose curve fit
Description: as §1, §2

[1] = Stability in human liver microsomes
Description: Human liver microsomes were prepared by Absorption Systems. A reaction mixture, minus NADPH, was prepared as described below. […] In parallel, a […]. The test compound was added into the reaction mixture (0.5 mg/mL human liver microsomes; 100 mM potassium phosphate; 5 mM Magnesium chloride) at a final concentration of 1 μM. An aliquot of the reaction mixture (without cofactor) was incubated in a shaking water bath at 37° C. for 3 minutes. […] The samples were then mixed and centrifuged to precipitate microsomal proteins. […] A thermo BDS Hypersil C18 column (30×2.0 mm; 3 μm) was used for chromatography at 300 μL/minute with an aqueous reservoir of 90% water and 10% buffer and an organic reservoir of 90% acetonitrile with 10% buffer (each 25 mM ammonium formate buffer at pH of 3.5). Test compound samples were analyzed by orbitrap. The peak area response ratio to internal standard (PARR) of the compounds at 10, 20, 30, and 60 minutes was compared to the PARR at time 0 to determine the percent of test compound remaining at each timepoint. After the final time point, fluorimetry is used to confirm the addition of NADPH to the reaction mixture. Half-life was normalized of control using internal acceptance criteria.
The mass spectrometry measurements of compound were taken at 0, 10, 20, 30, and 60 minutes after incubation of the compound with human liver microsomes at […] in solution at 37° C.
Intrinsic clearance (CLint) was calculated based upon CLint=k/P, where k is the elimination rate constant and P is the protein concentration in the incubation.

[2] = Stability in human plasma; type: in vitro ADME
Description: Studies of the 2010 peptide were carried out in human plasma. All plasma was obtained from Bioreclamation and collected on sodium heparin. DMSO stocks were first prepared for the test compounds. Aliquots of the DMSO solutions were dosed into 1 mL of plasma, which had been pre-warmed to 37° C., at a final test compound concentration of 1 μM. The vials were kept in a benchtop Thermomixer® for the duration of the experiment. Aliquots (100 μL) were taken at each timepoint (0, 15, 30, 60, and 120 minutes) and added to 96-well plates which had been pre-filled with 300 μL of acetonitrile. Samples were stored at 4° C. until the end of the experiment. After the final timepoint was sampled, the plate was mixed and then centrifuged at 3,000 rpm for 10 minutes. Aliquots of the supernatant were removed, diluted 1:1 into distilled water, and analyzed by LC-MS/MS.
Below is a table of data describing the stability of compounds exposed to human plasma with aliquot of compound dissolved in DMSO solution at 37° C. The pH of the plasma solution was adjusted to 7.4 and single replicants of aliquot were taken at 0, 15, 30, 60 and 120 minutes. LC-MS/MS was used to determine the percent mass of compound remaining in solution (% remaining).

SMILES	Emax (GIP receptor (GIPR))	Emax (GLP-1 receptor (GLP1R))	Curve Bottom (GIP receptor (GIPR))	Curve Top (GIP receptor (GIPR))	Hill (GIP receptor (GIPR))	Curve Bottom (GLP-1 receptor (GLP1R))	Curve Top (GLP-1 receptor (GLP1R))	Hill (GLP-1 receptor (GLP1R))	further results
CC[C@H](C)[C@@H](CC(=O)N[C@@H](Cc1ccc(O)cc1)C(=O)N[C@@H](CC(C)C)C(=O)N[C@@H](CC(=O)O)CC(=O)N[C@@H](CCCCN)C(=O)N[C@@H](CCC(N)=O)C(=O)N[C@@H](C)C(=O)N[C@@H](C)CC(=O)NC(C)(C)C(=O)N[C@@H](CCC(=O)O)C(=O)N[C@H](CC(=O)N[C@H](C(=O)N[C@@H](CC(N)=O)C(=O)N[C@@H](Cc1c[nH]c2ccccc12)C(=O)N[C@H](CC(=O)N[C@@H](CC(C)C)C(=O)N[C@@H](C)C(=O)NCCC(=O)O)CC(C)C)C(C)C)Cc1ccccc1)NC(=O)[C@H](CO)NC(=O)[C@H](Cc1ccc(O)cc1)NC(=O)[C@H](CC(=O)O)NC(=O)[C@H](CO)NC(=O)[C@@H](NC(=O)[C@H](Cc1ccccc1)NC(=O)[C@@H](NC(=O)CNC(=O)[C@H](CCC(=O)O)NC(=O)C(C)(C)NC(=O)[C@@H](N)Cc1ccc(O)cc1)[C@@H](C)O)[C@@H](C)O [compound 2004, YBEGT FTSDY SIYLD KQAAB EFVNW LLAG]	99.1%	2.68%							
CC[C@H](C)[C@H](NC(=O)[C@H](CO)NC(=O)[C@H](Cc1ccc(O)cc1)NC(=O)[C@H](CC(=O)O)NC(=O)[C@H](CO)NC(=O)[C@@H](NC(=O)[C@H](Cc1ccccc1)NC(=O)[C@@H](NC(=O)CNC(=O)[C@H](CCC(=O)O)NC(=O)C(C)(C)NC(=O)[C@@H](N)Cc1ccc(O)cc1)[C@@H](C)O)[C@@H](C)O)C(=O)N[C@@H](Cc1ccc(O)cc1)C(=O)N[C@@H](CC(C)C)C(=O)N[C@@H](CC(=O)O)C(=O)N[C@@H](CCCCN)C(=O)N[C@H]1CCC[C@@H]1C(=O)N[C@@H](C)C(=O)N[C@@H](C)C(=O)NC(C)(C)C(=O)N[C@H]1CCC[C@@H]1C(=O)N[C@@H](Cc1ccccc1)C(=O)N[C@H](C(=O)N[C@H]1CNC[C@@H]1C(=O)N[C@@H](Cc1c[nH]c2ccccc12)C(=O)N[C@@H](CC(C)C)C(=O)N[C@@H](CC(C)C)C(=O)N[C@H]1CCC[C@@H]1C(=O)NCC(N)=O)C(C)C [compound 2010, YBEGT FTSDY SIYLD KXAAB XFVZW LLXG]	96.9%	82.1%	−0.3	85.5	1.59	0.4	82.4	2.9	% of mass remaining in solution ([1]; 0 mins., 0.5 mg/mL human liver microsomes, 1 μM, 1 mM NADPH, 37° C.): 100%; half-life ([1]; human, microsomes): > 1 h; microsomal CLint ([1]; human, microsomes): 11 µL/min/mg; remaining at 10 min, 1 μM ([1]; human, microsomes): 98%; remaining at 20 min, 1 μM ([1]; human, microsomes): 95%; remaining at 0.5 h, 1 μM ([1]; human, microsomes): 87%; remaining at 1 h, 1 μM ([1]; human, microsomes): 73%; % of mass remaining in solution ([2]; 0 mins., 1 μM, 37° C., pH 7.4): 100%; remaining at 0.25 h, 1 μM ([2]; plasma (sodium heparin), 15 mins., 1 μM, 37° C., pH 7.4, read-out: % of mass remaining in solution): 96%; remaining at 0.5 h, 1 μM ([2]; plasma (sodium heparin), 30 mins., 1 μM, 37° C., pH 7.4, read-out: % of mass remaining in solution): 103%; remaining at 1 h, 1 μM ([2]; plasma (sodium heparin), 60 mins., 1 μM, 37° C., pH 7.4, read-out: % of mass remaining in solution): 99%; remaining at 2 h, 1 μM ([2]; plasma (sodium heparin), 120 mins., 1 μM, 37° C., pH 7.4, read-out: % of mass remaining in solution): 97%; half-life ([2]; read-out: serum-half lives): > 2 h
CC[C@H](C)[C@H](NC(=O)[C@H](CO)NC(=O)[C@H](Cc1ccc(O)cc1)NC(=O)[C@H](CC(=O)O)NC(=O)[C@H](CO)NC(=O)[C@@H](NC(=O)[C@H](Cc1ccccc1)NC(=O)[C@@H](NC(=O)CNC(=O)[C@H](CCC(=O)O)NC(=O)C(C)(C)NC(=O)[C@@H](N)Cc1ccc(O)cc1)[C@@H](C)O)[C@@H](C)O)C(=O)N[C@@H](Cc1ccc(O)cc1)C(=O)N[C@@H](CC(C)C)C(=O)N[C@@H](CC(=O)O)C(=O)N[C@H]1CNC[C@@H]1C(=O)N[C@@H](CCC(N)=O)C(=O)N[C@@H](C)C(=O)N[C@H]1CCC[C@@H]1C(=O)NC(C)(C)C(=O)N[C@@H](CCC(=O)O)C(=O)N[C@@H](Cc1ccccc1)C(=O)N[C@H]1CCC[C@@H]1C(=O)N[C@@H](CC(N)=O)C(=O)N[C@@H](Cc1c[nH]c2ccccc12)C(=O)N[C@H]1CCC[C@@H]1C(=O)N[C@@H](CC(C)C)C(=O)N[C@@H](C)C(=O)NCC(N)=O [compound 2008, YBEGT FTSDY SIYLD ZQAXB EFXNW XLAG]	82.2%	84.5%	−0.6	82.8	2.32	0.9	84.4	3.47	
CC[C@H](C)[C@H](NC(=O)[C@H](CO)NC(=O)[C@H](Cc1ccc(O)cc1)NC(=O)[C@H](CC(=O)O)NC(=O)[C@H](CO)NC(=O)[C@@H](NC(=O)[C@H](Cc1ccccc1)NC(=O)[C@@H](NC(=O)CNC(=O)[C@H](CCC(=O)O)NC(=O)C(C)(C)NC(=O)[C@@H](N)Cc1ccc(O)cc1)[C@@H](C)O)[C@@H](C)O)C(=O)N[C@@H](Cc1ccc(O)cc1)C(=O)N[C@H](CC(=O)N[C@@H](CC(=O)O)C(=O)N[C@@H](CCCCN)C(=O)N[C@@H](CCC(N)=O)CC(=O)N[C@@H](C)C(=O)N[C@@H](C)C(=O)NC(C)(C)C(=O)N[C@@H](CCC(=O)O)CC(=O)N[C@@H](Cc1ccccc1)C(=O)N[C@H](C(=O)N[C@@H](CC(N)=O)CC(=O)N[C@@H](Cc1c[nH]c2ccccc12)C(=O)N[C@@H](CC(C)C)C(=O)N[C@@H](CC(C)C)C(=O)N[C@@H](C)CC(=O)NCC(=O)O)C(C)C)CC(C)C [compound 2005, YBEGT FTSDY SIYLD KQAAB EFVNW LLAG]	99.2%	95.7%							
CC[C@H](C)[C@@H](CC(=O)N[C@@H](Cc1ccc(O)cc1)C(=O)N[C@@H](CC(C)C)C(=O)N[C@@H](CC(=O)O)C(=O)N[C@@H](CCCCN)CC(=O)N[C@@H](CCC(N)=O)C(=O)N[C@@H](C)C(=O)N[C@@H](C)CC(=O)NC(C)(C)C(=O)N[C@@H](CCC(=O)O)C(=O)N[C@@H](Cc1ccccc1)C(=O)N[C@H](CC(=O)N[C@@H](CC(N)=O)C(=O)N[C@@H](Cc1c[nH]c2ccccc12)C(=O)N[C@H](CC(=O)N[C@@H](CC(C)C)C(=O)N[C@@H](C)C(=O)NCC(=O)O)CC(C)C)C(C)C)NC(=O)[C@H](CO)NC(=O)[C@H](Cc1ccc(O)cc1)NC(=O)[C@H](CC(=O)O)NC(=O)[C@H](CO)NC(=O)[C@@H](NC(=O)[C@H](Cc1ccccc1)NC(=O)[C@@H](NC(=O)CNC(=O)[C@H](CCC(=O)O)NC(=O)C(C)(C)NC(=O)[C@@H](N)Cc1ccc(O)cc1)[C@@H](C)O)[C@@H](C)O [compound 2001, YBEGT FTSDY SIYLD KQAAB EFVNW LLAG]	16.5%	36.7%							
